Reference: publication PMC4148842, “The Recognition of Collagen and Triple-helical Toolkit Peptides by MMP-13” (The Journal of Biological Chemistry, 2014)

Target: MMP-13 (Homo sapiens, UniProt P45452)
Assay: MMP-13 Toolkit solid-phase binding assay (SPBA), wild type active MMP-13
Design: made in house; host or cells: mouse myeloma cells
Details: wild type MMP-13 on collagen-coated wells, four experiments, differences not significant
Experimental: Recombinant proMMP-13 was expressed and purified as previously described ([18]). Where required, proMMP-13 was activated to yield MMP-13 by incubation in 1 mM 4-amino-phenylmercuric acetate (APMA) for 1 h at 37 °C. ProMMP-13(E204A) was expressed in Escherichia coli BL21(DE3), refolded, purified, and activated essentially as described for proMMP-1(E200A) ([19], [20]). The Cat domain of MMP-13 (Δ249–451) was expressed and purified from NSO mouse myeloma cells as previously described ([12]). […]
Immulon 2 HB 96-well plates (Nunc, Langenselbold, Germany) were coated with Collagen Toolkit or other peptides, fibrillar or monomeric collagen at a saturating concentration (10 μg/ml in 0.01 M acetic acid) overnight at 4 °C. […] Rabbit anti-MMP-13, raised against MMP-13 hinge region (Abcam, Cambridge, UK), and goat anti-rabbit HRP (Dako, Ely, UK) were added at a dilution of 1:2000 in adhesion buffer prior to the addition of TMB substrate system (Sigma), and the plates read at 450 nm. […] To confirm affinity of the anti-hinge antibody for MMP-13 and MMP-13(E204A), increasing concentrations of MMP were coated onto an ELISA plate prior to blocking and detected as previously described. Binding curves were fitted using Prism 5.0 software (GraphPad, San Diego), allowing total binding (Bmax) and equilibrium dissociation constant (KD) to be determined. […]

| Kd | Substance |
| --- | --- |
| 33 nM | fibrillar type I collagen: Fibrous bovine type I collagen, a gift from Ethicon Corporation |
| 118 nM | monomeric type I collagen: Monomeric collagen obtained from Devro (Bathurst, Australia) |
